Columns and labels:
Type in all cases: cell-based, human
leukemia cell line SR = experiment: MTT assay, SR; conditions: FIG. 8A (cGAMP), FIG. 8B (IFN-β)
tumor cell lines = experiment: Tumor cell lines treated with IFN-β alone
Text: To test whether IFN-β induced by cGAMP mediates the suppression of tumor growth, we have treated the three tumor cell lines with either cGAMP or IFN-β alone.

[1] = system: leukemia cell line CCRF-CEM; experiment: MTT assay, CCRF-CEM; conditions: control leukemia cell line (FIG. 8)

## IFN-β: type I interferon used alone to treat tumor cell lines
Leukemia cell line SR
  response of cell line to treatment, MTT: does not respond very well
Tumor cell lines; two of the three tumor cell lines
  growth suppression by IFN-β alone: suppressed the growth
Tumor cell lines; two tumor cell lines, at the concentrations tested
  potency compared with cGAMP: almost as potent as cGAMP
[1]
  response of cell line to treatment, MTT: did not respond

From US20180344758A1, “Method of Treating Cancer with cGAMP or cGAsMP” (LIPOGEN LLC, priority 2014, published 2018)
